Reference: ChEMBL document CHEMBL3297697, “Property- and structure-guided discovery of a tetrahydroindazole series of interleukin-2 inducible T-cell kinase inhibitors” (J Med Chem, 2014)

Target: T1, Tyrosine-protein kinase ITK/TSK (Homo sapiens, UniProt Q08881)
T1 sequence (Q08881 whole entry): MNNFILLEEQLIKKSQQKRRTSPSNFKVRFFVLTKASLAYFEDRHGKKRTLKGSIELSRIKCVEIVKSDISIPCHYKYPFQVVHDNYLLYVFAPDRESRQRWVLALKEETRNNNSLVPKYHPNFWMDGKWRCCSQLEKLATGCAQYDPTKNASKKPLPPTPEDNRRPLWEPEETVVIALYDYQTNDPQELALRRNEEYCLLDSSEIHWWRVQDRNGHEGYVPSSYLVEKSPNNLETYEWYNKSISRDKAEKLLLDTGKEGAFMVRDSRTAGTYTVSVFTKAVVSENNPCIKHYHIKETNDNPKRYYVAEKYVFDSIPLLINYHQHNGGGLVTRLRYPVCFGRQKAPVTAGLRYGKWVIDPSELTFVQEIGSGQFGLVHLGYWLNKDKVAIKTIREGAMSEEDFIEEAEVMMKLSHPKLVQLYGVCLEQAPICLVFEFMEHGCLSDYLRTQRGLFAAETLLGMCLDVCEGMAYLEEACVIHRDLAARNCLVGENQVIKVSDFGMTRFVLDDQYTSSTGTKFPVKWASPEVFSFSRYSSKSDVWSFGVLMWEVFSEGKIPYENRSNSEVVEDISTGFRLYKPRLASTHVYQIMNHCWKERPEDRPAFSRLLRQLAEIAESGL

IC50: 47 nM
SMILES: Cc1cccc([C@H](CCN(C)C)n2cc(NC(=O)c3n[nH]c4c3CCC(C)(C)C4)cn2)c1
